Results as given in ChEMBL document CHEMBL1135721, “Pyridophens: binary pyridostigmine-aprophen prodrugs with differential inhibition of acetylcholinesterase, butyrylcholinesterase, and muscarinic receptors” (2002).

How the values were obtained:
[1] = biological target: Butyrylcholinesterase (Equus caballus) (UniProt Q9N1N9); test: Inhibitory activity against Butyrylcholinesterase (BChE) Carbamylation rate was reported
[2] = biological target: Butyrylcholinesterase (Equus caballus) (UniProt Q9N1N9); test: Inhibitory activity against Butyrylcholinesterase (BChE) and Bimolecular rate was reported
[3] = biological target: T1, Acetylcholinesterase (Bos taurus) (UniProt P23795); test: Inhibitory activity against Acetylcholinesterase (AChE) and Carbamylation rate was reported
T1 sequence (whole entry): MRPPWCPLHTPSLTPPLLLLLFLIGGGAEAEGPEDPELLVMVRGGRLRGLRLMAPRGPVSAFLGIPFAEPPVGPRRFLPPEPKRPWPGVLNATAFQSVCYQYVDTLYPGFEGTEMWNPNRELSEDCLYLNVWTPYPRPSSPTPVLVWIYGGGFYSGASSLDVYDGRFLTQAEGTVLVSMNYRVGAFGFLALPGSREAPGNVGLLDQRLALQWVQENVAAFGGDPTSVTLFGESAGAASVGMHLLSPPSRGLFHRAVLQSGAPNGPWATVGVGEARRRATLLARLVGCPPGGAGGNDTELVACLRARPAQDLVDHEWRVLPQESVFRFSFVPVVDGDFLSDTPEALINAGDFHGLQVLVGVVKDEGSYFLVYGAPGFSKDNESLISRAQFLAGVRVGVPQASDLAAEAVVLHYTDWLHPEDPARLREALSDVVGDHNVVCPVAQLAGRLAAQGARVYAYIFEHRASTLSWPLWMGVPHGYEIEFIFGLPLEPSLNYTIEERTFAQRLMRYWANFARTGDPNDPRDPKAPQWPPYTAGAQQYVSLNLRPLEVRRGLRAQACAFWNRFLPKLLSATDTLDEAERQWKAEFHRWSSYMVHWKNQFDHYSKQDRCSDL

[4] = biological target: T1, Acetylcholinesterase (Bos taurus); test: Inhibitory activity against Acetylcholinesterase (AChE) and Bimolecular rate constant was reported
[5] = biological target: T1, Acetylcholinesterase (Bos taurus); test: Inhibitory activity against Acetylcholinesterase (AChE) inhibitor and Bimolecular rate constant was reported

## CN(C)C(=O)OC1=CCCN(C)C1COC(=O)C(C)(c1ccccc1)c1ccccc1 (stereo not given)
[1]
  k2c: 1.41 min⁻¹
[2]
  k2': 4.25e-07 M⁻¹ s⁻¹
[3]
  k2c: 0.39 min⁻¹
[4]
  k2': 0.000141 M⁻¹ s⁻¹

## CN(C)C(=O)Oc1ccc[n+](C)c1
[1]
  k2c: 0.52 min⁻¹
[2]
  k2': 0.076 M⁻¹ s⁻¹
[3]
  k2c: 5.78 min⁻¹
[4]
  k2': 0.0485 M⁻¹ s⁻¹

## CN(C)C(=O)Oc1cccnc1CO
[1]
  k2c: 1.08 min⁻¹
[2]
  k2': 0.00131 M⁻¹ s⁻¹
[3]
  k2c: 0.07 min⁻¹
[4]
  k2': 2.08e-05 M⁻¹ s⁻¹

## CN(C)C(=O)Oc1cccnc1COC(=O)C(C)(c1ccccc1)c1ccccc1
[1]
  k2c: 2.91 min⁻¹
[2]
  k2': 5.72e-07 M⁻¹ s⁻¹
[3]
  k2c: 1.08 min⁻¹
[4]
  k2': 4.63e-06 M⁻¹ s⁻¹

## CN(C)C(=O)Oc1ccc[n+](C)c1COC(=O)C(C)(c1ccccc1)c1ccccc1
[1]
  k2c: 0.03 min⁻¹
[2]
  k2': 0.156 M⁻¹ s⁻¹
[3]
  k2c: 1.28 min⁻¹
[5]
  k2': 0.038 M⁻¹ s⁻¹
